The values that follow come from ChEMBL document CHEMBL1127907, “Design of a potent 5-HT4 receptor agonist with nanomolar affinity” (Bioorg Med Chem Lett, 1994).

Protein sequences, listed by entry. Tags and fused reporters are not part of them. Lines headed by an entry give the natural chain unless they say otherwise; changes in a name come on top.
UniProt Q62758: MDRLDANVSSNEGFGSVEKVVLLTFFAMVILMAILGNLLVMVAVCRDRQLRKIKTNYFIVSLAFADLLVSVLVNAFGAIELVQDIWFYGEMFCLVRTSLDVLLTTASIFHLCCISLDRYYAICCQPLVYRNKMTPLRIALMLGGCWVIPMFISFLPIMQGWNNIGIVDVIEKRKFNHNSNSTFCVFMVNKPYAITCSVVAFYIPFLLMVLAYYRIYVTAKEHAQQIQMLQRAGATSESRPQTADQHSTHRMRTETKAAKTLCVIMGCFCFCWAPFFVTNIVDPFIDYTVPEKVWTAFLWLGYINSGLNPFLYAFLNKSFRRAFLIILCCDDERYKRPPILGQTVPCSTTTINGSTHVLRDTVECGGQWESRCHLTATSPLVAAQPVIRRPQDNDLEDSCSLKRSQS

pIC50, pKi: −log10 of the molar value.

For test [1], the target named is T1, 5-hydroxytryptamine receptor 4 (Rattus norvegicus, UniProt Q62758). Put plainly: Binding affinity against 5-hydroxytryptamine 4 receptor using [3H]GR-113808 as radioligand in rat striatum. Type of test: tissue-based.
The target of test [2] is T1, 5-hydroxytryptamine receptor 4. Put plainly: 5-hydroxytryptamine 4 receptor agonist activity was determined by the relaxation of the carbachol-contracted rat esophageal tunica muscularis mucosae. The test is classed as functional.

In the case of `CCN(CC)CCNC(=O)c1cc(Cl)c(N)cc1OC` [METOCLOPRAMIDE], the pKi in test [1] was 6.01.

In test [2], `NCCc1c[nH]c2ccc(O)cc12` [SEROTONIN] gave a pIC50 of 8.43.
